Measurements reported in patent US20240174690A1, “ANNULATED 2-AMINO-3-CYANO THIOPHENES AND DERIVATIVES FOR THE TREATMENT OF CANCER” (BOEHRINGER INGELHEIM INTERNATIONAL GMBH, priority 2021, published 2024).

Chains of the proteins cited; added tags and fusions are not shown. A line that says so, or that is headed by a name, gives the form on record, which may keep a tag or linker. Residues count along the entry.
UniProt P01116, 1-164 with tags or gaps C118S/C51S/C80L/G12C limits assumed: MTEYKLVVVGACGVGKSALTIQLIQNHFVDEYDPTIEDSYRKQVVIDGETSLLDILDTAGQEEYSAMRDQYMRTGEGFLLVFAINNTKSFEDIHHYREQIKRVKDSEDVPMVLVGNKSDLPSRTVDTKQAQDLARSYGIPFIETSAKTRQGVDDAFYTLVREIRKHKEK

Experiments:
KRAS (G12C)::SOS1 = KRAS (G12C)::SOS1 (Homo sapiens (Human), UniProt P01116, C118S/C51S/C80L/G12C); assay: KRAS::SOS1 AlphaScreen binding assay, KRAS G12C; conditions: read-out: KRAS G12C IC50
Text: This assay can be used to examine the potency with which compounds according to the invention binding to (mutated) KRAS inhibit the protein-protein interaction between SOS1 and (mutated) KRAS e.g., KRAS WT, KRAS G12C, KRAS G12D, KRAS G12V, KRAS G13D. […] Low IC50 values in this assay setting are indicative of strong inhibition of protein-protein interaction between SOS1 and KRAS:
These assays measure the inhibitory effect of compounds on KRAS mutant protein-protein interactions using the Alpha Screen technology by Perkin Elmer. […]
Plates are kept at room temperature in a darkened incubator. After an additional 60 minutes incubation time the signal is measured in a PerkinElmer Envision HTS Multilabel Reader using the AlphaScreen specs from PerkinElmer. […]
As internal control known inhibitors of KRAS mutant::SOS1 interaction can be measured on each compound plate. […]

[1] = Plasma protein binding assay (PPB), equilibrium dialysis, 10% FCS in PBS; conditions: fraction unbound
Procedure: Binding of test compounds to plasma was determined using equilibrium dialysis (ED) and quantitative mass spectrometry interfaced with liquid chromatography (LC-MS). In brief, ED was performed with dialysis devices consisting of two chambers separated by a semipermeable membrane with a molecular weight cut-off of 5-10 kg/mol. One chamber was filled with 10% FCS in PBS containing 1-10 μmol/L test compound and the other chamber was filled with phosphate-buffer saline (PBS) with or without dextran. The dialysis chamber was incubated for 3-5 hours at 37° C. After incubation, protein was precipitated from aliquots of each chamber and the concentration of test compound in the supernatant of the plasma-containing compartment (Cserum) and of the buffer-containing compartment (Cbuffer) was determined by LC-MS. The fraction of unbound test compound (not bound to plasma) (fu) was calculated according to the following equation: […]

LOVO cells = assay: LOVO CTG proliferation assay (120 h) (CRC, G13D); conditions: read-out: LOVO IC50, CTG 120 h
Procedure: LOVO CTG Proliferation Assay (120 h) (CRC, G13D)
LOVO cells (ATCC CCL-229) are dispensed into 384-well plates, flat and clear bottom (Greiner, PNr. 781091) at a density of 1000 cells per well in 60 μL DMEM (Sigma D6429)+10% Fetal Calf Serum (HyClone, PNr.: SH30084.03) and incubated at 37° C. in a CO2 incubator overnight. The next day, compounds (10 mM stock in DMSO) are added with the ECHO acoustic liquid handler system (Beckman Coulter), including DMSO controls. Plates are incubated for 120 h, and cell viability is measured using CellTiter-Glo luminescent cell viability reagent (Promega product code G7570). Viability (stated as percent of control) is defined as relative luminescence units RLU of each well divided by the RLU of cells in DMSO controls. IC50 values are determined from viability measurements by non-linear regression using a four-parameter model.

Cc1ccncc1-c1cn(-c2cc(O[C@@H](C)[C@@H]3CCCN3C)nc(-c3noc4c3CCC[C@@]43CCCc4sc(N)c(C#N)c43)n2)nn1
IC50 (KRAS (G12C)::SOS1): 2 nM
PPB 10% FCS (% fu) [1]: 5 % fu
IC50 (LOVO cells): 323 nM
